Source: article PMC9175271 (2022)

By UniProt entry, the sequences of proteins in these tests, tags left out.
UniProt P08173, whole entry: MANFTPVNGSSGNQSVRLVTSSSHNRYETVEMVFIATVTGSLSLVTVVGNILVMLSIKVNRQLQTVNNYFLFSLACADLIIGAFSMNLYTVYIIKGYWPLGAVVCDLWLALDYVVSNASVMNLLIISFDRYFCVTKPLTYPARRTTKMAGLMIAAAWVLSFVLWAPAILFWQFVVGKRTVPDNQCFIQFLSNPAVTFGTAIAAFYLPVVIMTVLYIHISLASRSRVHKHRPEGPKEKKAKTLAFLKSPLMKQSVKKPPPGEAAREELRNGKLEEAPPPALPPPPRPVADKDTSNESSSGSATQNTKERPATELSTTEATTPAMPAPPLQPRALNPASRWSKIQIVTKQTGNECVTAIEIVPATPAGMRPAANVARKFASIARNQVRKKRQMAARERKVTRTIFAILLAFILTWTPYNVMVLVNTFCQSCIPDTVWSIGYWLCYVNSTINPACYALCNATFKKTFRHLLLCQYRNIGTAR

Tests used:
[1] = target: T1, human M4 receptor (Homo sapiens, UniProt P08173); test: Live-cell microscopy competition binding with UR-CG072 on CHO-K1-hM4R cells
[2] = target: T1, human M4 receptor; test: FA competition binding with UR-MK342 as reporter probe, M4 receptor BBV particles
[3] = target: T1, human M4 receptor; test: FA competition binding with UR-CG072 as reporter probe, M4 receptor BBV particles

CN1[C@@H]2C[C@@H](OC(=O)[C@H](CO)c3ccccc3)C[C@H]1[C@@H]1O[C@@H]12 [scopolamine]
pKi [1]: 9.18 | pKi [2]: 8.30 | pKi [3]: 8.13

pKi: −log10 of the molar value.
